Key:
[1] = target: T1, human α4β2 nicotinic acetylcholine receptors (Homo sapiens, UniProt P17787+P43681); assay: α4β2-nAChR CNiFER FRET Flex assay; type: cell-based
T1 construct: expressed in transfected cells; the CNiFER line also carries TN-XXL

Sequences of proteins named here, by UniProt entry; tags and fusion partners are left off. Residues count along the entry.
UniProt P17787, 26-502: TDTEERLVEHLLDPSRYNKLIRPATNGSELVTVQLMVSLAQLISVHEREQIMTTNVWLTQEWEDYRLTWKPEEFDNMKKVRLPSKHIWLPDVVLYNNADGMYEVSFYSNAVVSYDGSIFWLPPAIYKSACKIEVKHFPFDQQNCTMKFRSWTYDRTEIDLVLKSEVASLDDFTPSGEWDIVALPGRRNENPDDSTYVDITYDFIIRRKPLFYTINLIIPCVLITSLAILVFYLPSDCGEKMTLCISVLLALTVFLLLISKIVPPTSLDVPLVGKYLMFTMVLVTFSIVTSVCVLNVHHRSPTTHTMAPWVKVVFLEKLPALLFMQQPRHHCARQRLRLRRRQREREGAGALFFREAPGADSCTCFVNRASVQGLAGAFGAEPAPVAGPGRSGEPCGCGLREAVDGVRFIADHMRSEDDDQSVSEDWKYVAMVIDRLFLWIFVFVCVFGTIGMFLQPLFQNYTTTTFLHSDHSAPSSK
UniProt P43681, 29-627: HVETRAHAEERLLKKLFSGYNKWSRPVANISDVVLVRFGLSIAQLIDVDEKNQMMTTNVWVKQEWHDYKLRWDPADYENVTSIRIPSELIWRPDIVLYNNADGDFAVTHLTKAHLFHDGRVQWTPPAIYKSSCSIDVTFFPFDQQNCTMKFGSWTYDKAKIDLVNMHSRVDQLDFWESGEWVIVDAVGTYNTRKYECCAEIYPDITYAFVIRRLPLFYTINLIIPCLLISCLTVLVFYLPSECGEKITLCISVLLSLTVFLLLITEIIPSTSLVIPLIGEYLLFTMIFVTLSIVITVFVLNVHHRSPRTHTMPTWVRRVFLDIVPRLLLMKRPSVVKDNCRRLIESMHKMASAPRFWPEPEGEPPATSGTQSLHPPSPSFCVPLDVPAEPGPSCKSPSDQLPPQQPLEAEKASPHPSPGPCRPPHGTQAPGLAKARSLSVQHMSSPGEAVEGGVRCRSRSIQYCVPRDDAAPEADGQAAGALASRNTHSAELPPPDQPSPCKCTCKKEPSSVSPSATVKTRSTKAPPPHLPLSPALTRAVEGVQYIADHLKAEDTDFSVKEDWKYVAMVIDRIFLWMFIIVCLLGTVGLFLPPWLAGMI
UniProt P23979, 24-489: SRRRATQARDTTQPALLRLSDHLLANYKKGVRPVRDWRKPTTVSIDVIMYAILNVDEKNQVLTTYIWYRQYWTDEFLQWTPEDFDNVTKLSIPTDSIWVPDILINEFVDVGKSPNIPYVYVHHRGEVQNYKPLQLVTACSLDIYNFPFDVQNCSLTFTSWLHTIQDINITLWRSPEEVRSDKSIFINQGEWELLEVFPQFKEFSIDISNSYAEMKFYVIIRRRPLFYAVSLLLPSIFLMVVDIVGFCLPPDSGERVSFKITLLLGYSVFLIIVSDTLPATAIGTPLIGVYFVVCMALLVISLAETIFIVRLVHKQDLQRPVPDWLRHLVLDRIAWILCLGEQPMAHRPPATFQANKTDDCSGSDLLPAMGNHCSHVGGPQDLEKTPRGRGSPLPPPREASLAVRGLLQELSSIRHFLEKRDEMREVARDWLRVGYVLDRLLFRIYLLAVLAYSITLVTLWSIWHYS

[2] = target: mouse 5-HT3A serotonin receptors (Mus musculus, UniProt P23979); assay: 5-HT3A CNiFER FRET Flex assay; type: cell-based; conditions: vs 5-HT
Description: Cells were cultured in 10 cm plates with DMEM (Mediatech, Manassas, VA) supplemented with 10% FBS (Gemini Bio-Products, West Sacramento, CA; Atlanta Biologicals, Lawrenceville, GA) and 1% Glutamine (Invitrogen), and incubated at 37°C with 10% CO2. Cells were selected at ∼70% confluency and plated the day before using 100 µl volumes per well into black, transparent flat-bottom, TC treated 96-well plates (Thermo, Waltham, MA; E&K, Greiner Campbell, CA). Plates were removed from the incubator the next day and the media was replaced with 100 µl of artificial cerebral spinal fluid (aCSF) [containing 121 mM NaCl, 2.4 mM Ca^2+, 1.3 mM Mg^2+, 5 mM KCl, 26 mM NaHCO3, 1.2 mM Na2HPO4, 10 mM glucose, 5 mM Hepes Na^+, pH 7.4]. For all assays performed on α7-nAChR CNiFERs 10 µM of the PAM, PNU-120596 (Tocris, Ellisville, MO), was prepared in aCSF. […] Mean peak FRET ratios calculated from replicates were exported and plotted against agonist concentrations using Graphpad Prism 4 (Carlsbad, CA). […]
To measure potencies of competitive antagonists, three concentration-response curves with different antagonist concentrations were compared to a control curve (without antagonist). […] The Schild Ka value for competitive antagonists was calculated from the x-intercept at y = 0, as the –Log (Ka), [38]. […]

SMILES	Schild Slope [1]	mode of antagonism (Schild analysis) [1]	mode of antagonism [2]
CO[C@H]1CC=C2CCN3CCC4=C(CC(=O)OC4)[C@]23C1 [DHβE, dihydro-beta-erythroidine]	−0.9±0.1	acts competitively	
CN1C2CCCC1CC(NC(=O)c1nn(C)c3ccccc13)C2 (stereo not drawn) [granisetron]			greater non-competitive component

Reference: article PMC3030600, “Characterizing Ligand-Gated Ion Channel Receptors with Genetically Encoded Ca^++ Sensors” (PLoS ONE, 2011)
